Experimental data: patent US6391899B1, “Compounds and compositions for treating tissue ischemia” (North Shore—Long Island Jewish Research Institute, priority 1998, dated 2002)

Columns and labels:
focal cerebral ischemia [1] = settings: 320 mg/kg i.p. 15 minutes post-ischemia, then every 8 hr; from Cockroft et al.; cited from earlier work
brain 3-aminopropanal = assay: Brain 3-aminopropanal level after middle cerebral artery occlusion (derivatization and HPLC); settings: 320 mg/kg i.p. 15 minutes post-ischemia, then every 8 hr; 25 hours
focal cerebral ischemia [2] = settings: 25 mg/kg i.p. 15 minutes post-ischemia; measured 25 hours after onset of ischemia

| SMILES | Infarct Volume (mm^3) (focal cerebral ischemia [1]) | Brain 3-aminopropanal level (μmol/g protein) (brain 3-aminopropanal) | Infarct Volume (mm^3) (focal cerebral ischemia [2]) |
| --- | --- | --- | --- |
| N=C(N)NN [aminoguanidine] | 12 ± 2*# mm^3 | not detectable | – |
| CCN(CC)CCCC(C)Nc1ccnc2cc(Cl)ccc12 (stereo not drawn) [chloroquine] | – | – | 27 ± 8* mm^3 |

Read-outs that look alike come from different tables or passages of the source. Marks after values point to notes of the source that are not given here.
